Values of other authors in patent publication US12685756B2, “Methods of treating disease with Terlipressin” (BIOVIE INC., priority 2022, dated 2026).

Target: vasopressin type 2 receptors (Homo sapiens, UniProt P30518)
Conditions: relative to AVP; cited from earlier work

8-lysine vasopressin [8-LVP]
binding affinity for vasopressin type 2 receptors, fold less than AVP: approximately 12 fold
